Measurements from ChEMBL document CHEMBL4368901 (J Med Chem, 2019).

Key:
CAKI-1 = assay: Antiproliferative activity against human Caki1 cells after 5 days by EZMTT reagent-based assay; assay type: functional, cell-based; details: CAKI-1, 120 h
A549 = assay: Antiproliferative activity against human A549 cells after 5 days by EZMTT reagent-based assay; assay type: functional, cell-based; details: A549, 120 h

O=C(Cc1cccc(OC(F)(F)F)c1)Nc1ccc(CCCCc2nnc(NC(=O)Cc3ccccn3)s2)nn1
IC50 (CAKI-1): 40 nM | IC50 (A549): 40 nM
